These are literature values, as cited in PMC10051989.

Chains of the proteins cited; added tags and fusions are not shown. Residues count along the entry.
UniProt P78352, 61-249: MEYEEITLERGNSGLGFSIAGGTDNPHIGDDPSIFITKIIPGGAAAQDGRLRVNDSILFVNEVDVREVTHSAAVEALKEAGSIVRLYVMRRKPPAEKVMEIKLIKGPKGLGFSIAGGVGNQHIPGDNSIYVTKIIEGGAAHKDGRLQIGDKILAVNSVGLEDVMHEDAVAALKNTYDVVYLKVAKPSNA

The data set has as its target Tat-N-dimer (Tat-NPEG4(IETDV)2).

In the case of PSD-95 PDZ1-2 (from UniProt P78352), the equilibrium dissociation constant (Kd) is 4.6 nM.
